{"source": "paper PMC10350911", "about": "(Analytical chemistry, 2023)", "molecular_target": "membrane-bound tumor necrosis factor α (Homo sapiens (assumed; labelled …, UniProt P01375)", "assay": "DEPC covalent labeling-mass spectrometry", "data": [{"binder": "infliximab (antibody, V domains shown) VH: EVKLEESGGGLVQPGGSMKLSCVASGFIFSNHWMNWVRQSPEKGLEWVAEIRSKSINSATHYAESVKGRFTISRDDSKSAVYLQMTDLRTEDTGVYYCSRNYYGSTYDYWGQGTTLTVSS VL: DILLTQSPAILSVSPGERVSFSCRASQFVGSSIHWYQQRTNGSPRLLIKYASESMSGIPSRFSGSGSGTDFTLSINTVESEDIADYYCQQSHSWPFTFGSGTNLEVK", "values": [{"measurement": "binding result", "result": "binds"}]}]}
